The values that follow come from patent publication US20120277239A1, “Compositions and Methods for Improving Night Vision” (ALPHA SYNERGY DEVELOPMENT INC., priority 2011, published 2012).

In data set [1] the test system is dark-adapted pupil diameter. Conditions: brimonidine at 0.10-0.20%; after several weeks of daily use; cited from earlier work.
For data set [2], the system named is pupil size. As to conditions: brimonidine 0.025%, pH 7.0 q am; Day 2.1 (follows 20 days of consecutive use). Here is the method: The pupil size was measured at the baseline and then 10 minutes and 3 hours after instillation for 3 consecutive weeks.
For data set [3] the following is noted: topically applied brimonidine at 0.15%; cited from earlier work.

With `Brc1c(N=C2NCCN2)ccc2nccnc12.O=C(O)C(O)C(O)C(=O)O` [brimonidine, 5-bromo-6-(2-imidazolin-2-ylamino)quinoxaline D-tartrate], in data set [1], the “patients having total tachyphylaxis and loss of effect” value was approximately 100%. Further, the Tachyphylaxis entry in data set [2] was “No tachyphylaxis was noted”. In data set [3], the “patients experiencing drowsiness or headaches” value is “At least 1%” and the “patients experiencing rebound hyperemia (redness)” value is given as “about 25%”.
